# Details: glutathione 1 mM (5 μL of 20 mM), 37° C., 4 h, 20 mM HEPES pH 7.4
substance,measurement,value
GrB2-SH2 Domain L111C/Dibromomaleimide/Glutathione Adduct,cleavage of adduct regenerating Grb2-SH2 (L111C),quantitative conversion

# From patent US10548982B2, “Reversible covalent linkage of functional molecules” (priority 2009, dated 2020)
